In ChEMBL document CHEMBL1649422, “Synthesis and molecular modeling of novel tetrahydro-β-carboline derivatives with phosphodiesterase 5 inhibitory and anticancer properties” (J Med Chem, 2011) one finds IC50 data, which are given here for one compound.

Protein sequences, listed by entry. Tags and fused reporters are not part of them. Lines headed by an entry give the natural chain unless they say otherwise; changes in a name come on top.
UniProt Q07343: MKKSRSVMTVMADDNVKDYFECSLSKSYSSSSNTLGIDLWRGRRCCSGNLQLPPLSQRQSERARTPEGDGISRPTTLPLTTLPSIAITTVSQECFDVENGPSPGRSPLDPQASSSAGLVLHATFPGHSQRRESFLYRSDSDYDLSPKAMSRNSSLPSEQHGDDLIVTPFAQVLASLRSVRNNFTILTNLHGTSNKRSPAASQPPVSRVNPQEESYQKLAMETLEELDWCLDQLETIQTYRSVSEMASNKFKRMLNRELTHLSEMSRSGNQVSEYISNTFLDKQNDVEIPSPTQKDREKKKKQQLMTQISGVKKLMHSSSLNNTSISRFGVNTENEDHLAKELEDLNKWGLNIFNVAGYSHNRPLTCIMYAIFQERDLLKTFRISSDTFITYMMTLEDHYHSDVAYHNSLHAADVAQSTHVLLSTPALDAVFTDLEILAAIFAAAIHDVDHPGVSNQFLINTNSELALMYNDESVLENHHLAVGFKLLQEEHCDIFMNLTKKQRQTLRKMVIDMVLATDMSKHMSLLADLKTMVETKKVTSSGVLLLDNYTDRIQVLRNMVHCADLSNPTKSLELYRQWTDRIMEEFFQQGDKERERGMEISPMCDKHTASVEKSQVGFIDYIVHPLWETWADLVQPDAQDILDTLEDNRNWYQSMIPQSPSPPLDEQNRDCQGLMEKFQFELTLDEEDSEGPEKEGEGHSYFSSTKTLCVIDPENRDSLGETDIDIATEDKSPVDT

The target of the assay is 3',5'-cyclic-AMP phosphodiesterase 4B (Homo sapiens, UniProt Q07343). Kind of assay: Inhibition of human recombinant PDE4B-mediated hydrolysis of cAMP after 30 mins by fluorescence polarization assay. The method, boiled down:
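Recombinant human enzyme levels were PDE3B 10 units/mL, PDE4B 400 units/mL and PDE11A 50 units/mL. Enzyme was preincubated with compound or vehicle for 30 min. Substrate was then added: 50 nM TAMRA-cGMP and/or 50 nM fluorescein-cAMP. Reactions ran 1.5 h at 30 °C, followed by IMAP binding reagent for 30 min at 30 °C. Fluorescence polarization was read. IC50 came from a 10-concentration series in quadruplicate, fitted to a four-parameter logistic.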
In general terms: In fluorescence polarisation assays a small probe gives low polarisation when free and higher when bound to something large.

A value given as a limit tells only on which side of the number the result lay.

Consider `CN1CC(=O)N2[C@H](c3ccc4c(c3)OCO4)c3[nH]c4ccccc4c3C[C@@H]2C1=O`, for which the IC50 (in general, the concentration needed to halve the response being measured) is greater than 50 µM.
